# Laboratory results reported in ChEMBL document CHEMBL1129346, “First examples of peptidomimetic inhibitors of interleukin-1 beta converting enzyme” (J Med Chem, 1996).
# What was measured:
# Caspase-1 (Homo sapiens) [1] = target: T1, Caspase-1 (Homo sapiens) (UniProt P29466); assay: The binding affinity of compound was measured against Interleukin-1-beta converting enzyme in monocytic cells; assay type: cell-based
# T1 sequence (whole entry): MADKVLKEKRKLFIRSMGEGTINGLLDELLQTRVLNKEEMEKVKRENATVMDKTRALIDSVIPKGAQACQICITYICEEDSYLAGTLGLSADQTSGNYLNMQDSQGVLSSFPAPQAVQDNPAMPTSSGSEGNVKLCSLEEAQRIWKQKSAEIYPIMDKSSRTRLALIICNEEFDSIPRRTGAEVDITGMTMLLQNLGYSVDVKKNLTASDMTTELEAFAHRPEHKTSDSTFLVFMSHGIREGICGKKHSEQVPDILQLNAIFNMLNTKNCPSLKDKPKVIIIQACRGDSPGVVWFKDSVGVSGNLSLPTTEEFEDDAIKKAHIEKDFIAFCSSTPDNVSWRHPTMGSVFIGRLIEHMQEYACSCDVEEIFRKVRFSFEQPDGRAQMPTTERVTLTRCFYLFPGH
# Summary of the method: (§1)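 ICE was partially purified from THP-1 cells by DEAE-Sephacel and Sephadex G-75 steps. The assay buffer was 10 mM HEPES pH 7.5 with 25% glycerol and 1 mM DTT, and the substrate was 10 μM Suc-Tyr-Val-Ala-Asp-AMC. Fluorescence progress curves were recorded at 37 °C over 30 min, and the nonlinear curves were analysed by the Tian–Tsou method. Standard error was <10%.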
# Caspase-1 (Homo sapiens) [2] = target: T1, Caspase-1 (Homo sapiens); assay: Second order rate constant of inactivation for compound was measured against Interleukin-1-beta converting enzyme partially purified from THP-1 cells; summary of the method: as §1
k obs / 1 (Caspase-1 (Homo sapiens) [1]) [M⁻¹ s⁻¹],k obs / 1 (Caspase-1 (Homo sapiens) [2]) [M⁻¹ s⁻¹],Compound
272000,–,O=C(O)C[C@H](NC(=O)Cn1c(-c2cccs2)ncc(NC(=O)OCc2ccccc2)c1=O)C(=O)COC(=O)c1c(Cl)cccc1Cl
–,280000,CC(C)[C@H](NC(=O)OCc1ccccc1)C(=O)N[C@@H](C)C(=O)N[C@@H](CC(=O)O)C(=O)COc1cc(C(F)(F)F)nn1-c1ccccc1
